Laboratory results reported in publication PMC11089511 (Journal of Medicinal Chemistry, 2024).

Assay: not given
Details: 1 μM compound, rat plasma, 6 h dialysis

Structure (SMILES)	plasma protein binding in rats (% unbound)
CCc1oc2cccc(I)c2c1C(=O)c1cc(I)c(O)c(I)c1 [Compound 4, (2-Ethyl-4-iodobenzofuran-3-yl)(4-hydroxy-3,5-diiodophenyl)methanone]	<0.01
CCc1oc2cccc(Br)c2c1C(=O)c1cc(I)c(O)c(I)c1 [Compound 5, (4-Bromo-2-ethylbenzofuran-3-yl)(4-hydroxy-3,5-diiodophenyl)methanone]	<0.01
CCc1oc2cccc(Cl)c2c1C(=O)c1cc(I)c(O)c(I)c1 [Compound 6, (4-Chloro-2-ethylbenzofuran-3-yl)(4-hydroxy-3,5-diiodophenyl)methanone]	<0.01
CCc1oc2c(Cl)ccc(Cl)c2c1C(=O)c1cc(I)c(O)c(I)c1 [Compound 7, (4,7-Dichloro-2-ethylbenzofuran-3-yl)(4-hydroxy-3,5-diiodophenyl)methanone]	<0.01
CCc1oc2cccc(C)c2c1C(=O)c1cc(I)c(O)c(I)c1 [Compound 8, (2-Ethyl-4-methylbenzofuran-3-yl)(4-hydroxy-3,5-diiodophenyl)methanone]	<0.01

Assay: in vitro
Details: PAMPA

Structure (SMILES)	recovery at 4 h, 80 μM [%]
CCc1oc2c(Cl)ccc(Cl)c2c1C(=O)c1cc(I)c(O)c(I)c1 [Compound 7, (4,7-Dichloro-2-ethylbenzofuran-3-yl)(4-hydroxy-3,5-diiodophenyl)methanone]	42
